Tested on: MDA-MB-453 cells
Assay: haNK cells plus trastuzumab in mouse model of HER2-positive breast cancer: tumor volume, T/C
Type: in vivo, female NOD-SCID IL2Rgamma^null (NSG) mice
Details: for T/C value: day 29
Source text: In a second exemplary treatment method to determine efficacy of haNK cells in combination with trastuzumab in a mouse model of HER2-positive breast cancer, the inventors used haNK cells as described previously. The haNK cells were developed by transfecting a parental aNK cell line with a bicistronic plasmid vector containing the high affinity V variant of CD16 (having valine at position 158) and an intracellularly-retained IL-2, which enables haNK cells to grow in the absence of exogenous IL-2. The plasmid contained some human origin sequences for CD16 and IL-2, neither of which have any transforming properties.
MDA-MB-453 cells (0.1 mL of 1×10^8/mL in 50% Matrigel) were injected subcutaneously into the left and right flank area of female NOD-SCID IL2Rgamma^null (NSG, Jackson Laboratory) mice (7 to 8 weeks old). When tumors reached about 100 mm^3, the mice were randomly assigned to one of ten groups of four mice/group as noted in FIG. 4A and dosed intravenously in the tail vein with saline (PBS), IgG1 (in 1 gm/kg and 3 mg/kg doses), trastuzumab (in 1 gm/kg and 3 mg/kg doses), haNK Cells as described previously (1×10^7 cells), combined IgG1 and haNK Cells treatment (IgG1 in 1 gm/kg and 3 mg/kg doses), and combined trastuzumab and haNK Cells treatment (trastuzumab in 1 gm/kg and 3 mg/kg doses). As depicted in FIG. 4F, the IgG1 and trastuzumab control groups received doses once per week for four weeks, while the saline, haNK Cells, and combined IgG1/trastuzumab and haNK Cells treatment regiments antibodies were administered once per week for four weeks and the haNK Cells were administered twice per week for four weeks. In the combined treatments, the mice received the antibody dose at least 3 hours prior to the injection of haNK cells.
Tumor growth and animal weights were measured twice weekly, as recorded in FIGS. 4B-4F. Statistical analyses of the difference in tumor volume or body weight change among the groups were evaluated using two-way ANOVA with repeated measures followed by the Bonferroni test, as reported in FIG. 4F (P-value). All the data were analyzed using GraphPad Prism software version 5. P<0.05 was considered to be statistically significant. The reported T/C (%) of FIG. 4F is ΔT/ΔC×100, where the ΔT and ΔC are the changes in the mean tumor volumes between day 29 and the first day of measurement for the treatment and control groups, respectively. The MWL is the maximum animal body weight loss over for the observed treatment cycle.

Substance: trastuzumab: antibody with binding specificity for HER2
- net change in tumor size (control and 1 mg/kg antibody groups): net-reduction in tumor size
- T/C value (antibody 1 mg/kg i.v. once per week for four weeks (haNK 1×10^7 cells twice per week where combined)): −34.5%
- T/C value (antibody 3 mg/kg i.v. once per week for four weeks (haNK 1×10^7 cells twice per week where combined)): −95.2%
- tumor reduction (trastuzumab 3 mg/kg, alone versus combined with haNK Cells): approximately the same tumor reduction

Source: patent US20180360881A1, “Compositions and Methods for Treatment of Her2 Positive Metastatic Breast Cancer” (NANT HOLDINGS IP, LLC, priority 2015, published 2018)
